# Data: patent publication US8501241B1, “Treating cancer with a whole, leech saliva extract” (priority 2012, dated 2013)
# Details: A516 after 15 min
structure (smiles),measurement,value
O=C1O[C@H]([C@@H](O)CO)C(O)=C1O [L-ascorbic acid],concentration required for scavenging 50% of DPPH (IC50),5.803 µg/mL
